Columns and labels:
BBB [1] = conditions: cited from earlier work
BBB [2] = experiment: PS and Vp at the BBB, IV bolus injection in non-transgenic mice; conditions: for PS: Permeability coefficient-surface area product / Vp: Residual brain region blood volume: x ± SEM; for PS: Permeability coefficient-surface area product: 125I derivatives over 15 min, corrected for Vp; for Vp: Residual brain region blood volume: 131I derivatives given 15 sec prior to end
Procedure: PS and Vp Determination in Mice. […] Blood was sampled from the femoral artery at several intervals during the next 15 minutes. Whole blood was sampled directly, using heparinized micro-hematocrit capillary tubes and TCA extracted. The supernatant was separated from the pellet and both were counted in a gamma counter. The radioactivity in the pellet was expressed as a percentage of the total radioactivity found in both the pellet and supernatant. An aliquot of the peptide labeled with ^131I was then injected into the femoral vein 15 seconds prior to sacrifice of the animal to serve as a measure of residual plasma volume (Vp; μl/g). After collection of the final blood sample, the anesthetized animal was sacrificed. […] The permeability coefficient x surface area products (PS; 10^−6 ml/g/s) were then calculated using the Vp as a measure of residual plasma volume based on equations that have been discussed in detail elsewhere (Poduslo and Curran, supra (1996a); Poduslo and Curran, supra (1996b); Wengenack, et al., supra (1997); Poduslo, et al., supra (1998); Poduslo, et al., supra (2000); Poduslo, et al., supra (2001). Statistical evaluations of PS and Vp were performed using ANOVA followed by Bonferroni multiple comparisons.

insulin
PS value in rat cortex (BBB [1]): 1.578e-05 mL/g/s

putrescine-gadolinium-amyloid-β peptide [PUT-Gd-Aβ]
RI of PS: relative increase versus Aβ (BBB [2]; Brain Stem): 2.0 | RI of Vp: relative increase versus Aβ (BBB [2]; Brain Stem): 3.7 | PS: Permeability coefficient-surface area product (BBB [2]; Brain Stem): 125.8 ± 8.9 ml/g/s × 10^−6 | Vp: Residual brain region blood volume (BBB [2]; Brain Stem): 63.5 ± 3.6 µL/g | RI of PS: relative increase versus Aβ (BBB [2]; Caudate-Putamen): 1.5 | RI of Vp: relative increase versus Aβ (BBB [2]; Caudate-Putamen): 4.4 | PS: Permeability coefficient-surface area product (BBB [2]; Caudate-Putamen): 60.0 ± 9.0 ml/g/s × 10^−6 | Vp: Residual brain region blood volume (BBB [2]; Caudate-Putamen): 43.4 ± 2.2 µL/g | RI of PS: relative increase versus Aβ (BBB [2]; Cerebellum): 1.7 | RI of Vp: relative increase versus Aβ (BBB [2]; Cerebellum): 3.5 | PS: Permeability coefficient-surface area product (BBB [2]; Cerebellum): 113.3 ± 12.5 ml/g/s × 10^−6 | Vp: Residual brain region blood volume (BBB [2]; Cerebellum): 73.4 ± 3.7 µL/g | RI of PS: relative increase versus Aβ (BBB [2]; Cortex): 1.7 | RI of Vp: relative increase versus Aβ (BBB [2]; Cortex): 4.1 | PS: Permeability coefficient-surface area product (BBB [2]; Cortex): 91.3 ± 9.5 ml/g/s × 10^−6 | Vp: Residual brain region blood volume (BBB [2]; Cortex): 58.2 ± 2.7 µL/g | RI of PS: relative increase versus Aβ (BBB [2]; Hippocampus): 1.7 | RI of Vp: relative increase versus Aβ (BBB [2]; Hippocampus): 3.3 | PS: Permeability coefficient-surface area product (BBB [2]; Hippocampus): 84.2 ± 6.8 ml/g/s × 10^−6 | Vp: Residual brain region blood volume (BBB [2]; Hippocampus): 52.2 ± 3.3 µL/g | RI of PS: relative increase versus Aβ (BBB [2]; Thalamus): 1.6 | RI of Vp: relative increase versus Aβ (BBB [2]; Thalamus): 4.5 | PS: Permeability coefficient-surface area product (BBB [2]; Thalamus): 83.1 ± 12.5 ml/g/s × 10^−6 | Vp: Residual brain region blood volume (BBB [2]; Thalamus): 58.8 ± 2.6 µL/g | decrease in the PS values compared to PUT-Aβ (BBB [2]; different brain regions): 19-40% | fold increase in PS values compared to Aβ (BBB [2]; range over six brain regions): 1.5-2.0 fold | fold increase in Vp values compared to Aβ (BBB [2]; range over six brain regions): 3.3-4.5 fold

Reference: patent US7371365B2, “Methods for detecting parenchymal plaques in vivo” (Mayo Foundation for Medical Education and Research, priority 2000, dated 2008)
